Molecular target: cloned human P2Y1 receptors (Homo sapiens (Human), UniProt P47900)
Assay: Binding Assay B - Scintillation Proximity Assay (SPA) for P2Y1 binding, [33P] 2MeS-ADP
Settings: read-out: P2Y1 Ki (nM) using binding assay B, 0.3 nM [33P] 2MeS-ADP, Cheng-Prusoff

The chains behind the UniProt entries cited, without tags or fusion partners.
UniProt P47900, whole entry: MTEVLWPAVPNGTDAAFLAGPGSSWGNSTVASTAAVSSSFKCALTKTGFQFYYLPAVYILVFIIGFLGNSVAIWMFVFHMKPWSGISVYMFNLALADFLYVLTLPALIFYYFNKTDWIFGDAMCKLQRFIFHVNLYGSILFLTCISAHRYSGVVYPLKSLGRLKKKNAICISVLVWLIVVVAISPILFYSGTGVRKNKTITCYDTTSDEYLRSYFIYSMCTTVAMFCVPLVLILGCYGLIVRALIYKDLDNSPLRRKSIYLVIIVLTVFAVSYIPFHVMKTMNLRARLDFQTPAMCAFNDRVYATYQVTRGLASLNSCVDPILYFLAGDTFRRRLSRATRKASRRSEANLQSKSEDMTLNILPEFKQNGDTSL

CC1(C)CN(c2ccccc2NC(=O)Nc2ccc(OC(F)(F)F)cc2)c2c(O)ccc(-c3nc4cc(F)ccc4o3)c21
Ki: 26.7 nM

Source: patent US9540323B2 (BRISTOL-MYERS SQUIBB COMPANY, priority 2012, dated 2017)
